Binding of CDR-mutated scFvs to a peptide of the spike HR2 region

Values reported by Li et al. 2023, doi:10.1038/s41467-023-39022-2 (FLAb copy).

Binding partner: SARS-CoV-2 spike HR2 peptide, sequence PDVDLGDISGINAS.

Parent scFv Ab-14: VH joined to VL by a (GGGGS)3 linker. Changes lie in the heavy chain CDRs alone.
VH: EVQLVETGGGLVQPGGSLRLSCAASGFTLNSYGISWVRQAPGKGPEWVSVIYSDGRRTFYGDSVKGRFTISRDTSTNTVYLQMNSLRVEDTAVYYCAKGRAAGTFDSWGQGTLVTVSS
VL: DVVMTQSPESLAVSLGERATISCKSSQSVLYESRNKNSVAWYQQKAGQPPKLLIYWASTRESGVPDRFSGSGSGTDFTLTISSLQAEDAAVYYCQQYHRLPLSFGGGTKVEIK

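The starting antibody came from a phage panning campaign against this peptide. Designed CDR sequences, proposed from the first random library and measured here. Their group label is 14H_GPLM_HC (GPLM: also part of the Gaussian process libraries; HC: hill climbing; a sequence that several methods proposed may carry one label only). AlphaSeq pools MATa yeast showing the antibodies with MATalpha yeast showing the peptide. Mating (16 h, 30 °C) was followed by selection of diploids and sequencing of their barcodes. Scores were corrected for input abundance and mapped to Kd with protein pairs of known affinity run in the same pool. The assay was run in six technical replicates.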

Each variant is given by its three heavy chain CDRs, as the data file delimits them; those of the parent are GFTLNSYGIS, VIYSDGRRTFYGDSVK, GRAAGTFDS. Values are log10 of the apparent Kd in nM; lower means stronger binding. The mean shown is taken over the replicates in which the pair was detected. "n.d." means that the variant was in the library but no mating with the target was seen in that replicate; the authors take this as a sign of poor binding, and no number exists. Three control strains display no target. For all heavy chain designs, 1% of the pairings with them gave a signal, with a median of 2.08 and one signal in twenty below 0.84, so weak values seen in few replicates may be background. For each scFv, signals with the empty controls are counted beside the result, with their mean in brackets. Of ten entries with the parent sequence, four were seen in most replicates (averages 0.34 to 2.37), three in one and three in none, so single entries are noisy. The authors averaged sequences with at least three values out of six and counted those with two or fewer as poor binders. A sequence measured in both rounds can read differently, since the two assays cover different ranges.

CDR-H1	CDR-H2	CDR-H3	log10 Kd (nM) by replicate	log10 Kd (nM), mean	empty controls
GFNLNEYGIS	VIYSDGRRTFYTDSVK	GRSAGTFDS	n.d. n.d. 1.86 2.11 2.82 1.95	2.18	0 of 18
GFDLNSYGIS	VIYSDGRRTFYGDSVK	GRAAGAFNS	0.65 0.55 -0.05 1.19 0.07 0.19	0.43	0 of 18
GFTLNDYGIS	VIYSDGRRTIYIDSVK	GRAAGTFDS	n.d. n.d. n.d. n.d. n.d. n.d.	n.d.	0 of 18
GFSLNDYGIS	VIYSDGRRTFYSDSVK	GRAAGFFDS	n.d. n.d. n.d. n.d. n.d. n.d.	n.d.	1 of 18 (2.38)
GFTLNEYGIS	VIYSDGRRTFYKDSVK	GRHAGTFDS	n.d. 1.48 1.02 2.28 1.53 1.69	1.60	0 of 18
GFTLNEYGIS	VIYSDGRRTFYKDSVK	GRFAGTFDS	1.05 1.13 0.30 0.86 0.32 0.02	0.61	0 of 18
GFTLDQYGIS	VIYSDGRRTFYSDSVK	GKAAGTFDS	-0.12 -0.09 -0.20 -0.05 0.16 0.19	-0.02	0 of 18
GFNLNSYGIS	VIYSDGRRTFYDDSVK	GQNAGTFDS	1.57 0.95 0.92 1.20 1.09 1.14	1.14	0 of 18
GFTLNNYGIS	VIYSDGRRTQYIDSVK	GQAAGTFDS	0.55 1.25 1.62 0.57 0.54 n.d.	0.91	0 of 18
HFTLNSYGIS	VIYSDGRRTFYDDSVK	GQLAGTFDS	n.d. 1.12 n.d. 1.82 n.d. 2.49	1.81	0 of 18
GFTLNSYGIS	VIYSDGHRTFYDDSVK	GQIAGTFDS	1.82 n.d. n.d. -0.04 1.01 0.02	0.70	0 of 18
GFTLESYGIS	VIYSDGRRTFYDDSVK	GQLAGTFDS	0.57 1.37 0.36 0.95 0.27 0.98	0.75	0 of 18
GFTLNEYGIS	VIYSDGRRTFYMDSVK	GRAAVTFDQ	n.d. n.d. n.d. n.d. n.d. n.d.	n.d.	0 of 18
GFTLNEYGIS	VIYSDGRRTFYSDAVK	GRAAGTFDS	-0.12 0.21 -0.10 -0.03 -0.31 -0.01	-0.06	0 of 18
GFDLNSYGIS	VIYSDGRRTFYGDSVK	GRAAGYFNS	n.d. n.d. n.d. n.d. n.d. n.d.	n.d.	0 of 18
GFSLNSYGIS	VIYSDGRRTFYSDSVK	GQAGGTFDS	n.d. n.d. n.d. n.d. n.d. n.d.	n.d.	0 of 18
GFTLNEYGIS	VIYSDGRRTFYGDSVK	GRTAGTFIS	n.d. n.d. n.d. n.d. n.d. n.d.	n.d.	0 of 18
GFTLNDYGIS	VIYSDGRRTVYSDSVK	GRAAGTFDS	n.d. n.d. n.d. n.d. n.d. n.d.	n.d.	0 of 18
GFSLNQYGIS	VIYSDGRRTFYSDSVK	GRAAGKFDS	n.d. n.d. n.d. n.d. n.d. n.d.	n.d.	1 of 18 (-1.39)
GFQLNSYGIS	VIYSDGRRTFYSDSVK	GKAGGTFDS	1.07 n.d. n.d. n.d. n.d. n.d.	1.07	0 of 18
GFTLNDYGIS	VIYSDGRRTVYIDSVK	GRAAGTFDS	n.d. 0.77 1.08 2.22 2.56 0.89	1.50	0 of 18
GFTLNSYGIS	VIYSDGRRTFYSDSVK	GSVGGTFDS	0.58 0.61 1.02 0.68 0.69 0.60	0.70	0 of 18
GFTLNDYGIS	VIYSDGRRTFYGDSVK	GRAAGTFRK	n.d. n.d. n.d. n.d. n.d. n.d.	n.d.	0 of 18
GFTLNSYGIS	VIYSDGRRTFYGDSVK	GQLAGTFDT	1.50 1.41 1.44 1.60 1.24 1.37	1.43	0 of 18
GFDLNSYGIS	VIYSDGRRTAYGDSVK	GRAAGSFDS	0.54 0.47 -0.02 -0.11 0.51 0.32	0.28	0 of 18
GFDLNSYGIS	VIYSDGRRTFYGDSVK	GRAAGHFFS	n.d. n.d. n.d. n.d. n.d. n.d.	n.d.	0 of 18
GFTLNEYGIS	VIYSDGRRTFYTDSVK	GRAAGMFDS	n.d. n.d. n.d. n.d. n.d. n.d.	n.d.	0 of 18
GFTLNQYGIS	VIYSDGVRTFYSDSVK	GRAAGTFDS	0.41 0.42 0.08 -0.01 0.47 0.47	0.31	0 of 18
GFGLNSYGIS	VIYSDGRRTFYDDSVK	GQLAGTFDS	0.43 0.19 0.47 0.31 0.25 0.29	0.33	1 of 18 (2.33)
GFTLNSYGIS	VIYSDGRRTFYGDSVK	GRAAGCAWT	n.d. n.d. n.d. n.d. n.d. n.d.	n.d.	0 of 18
GFTLNSYGIS	VIYSDGRRTFYSDSVK	GQAVGTFDS	n.d. n.d. n.d. n.d. n.d. n.d.	n.d.	0 of 18
GFTLNSYGIS	VIYSDGRRTFYQDSVK	GQLAGTFDS	1.44 1.98 2.69 1.71 1.53 2.92	2.05	1 of 18 (1.61)
GFTLNEYGIS	VIYSDGRRTFYGDSVK	GRAGGTFDS	0.27 0.64 1.13 n.d. -0.36 0.45	0.43	0 of 18
GFTLNEYGIS	VIYSDGRRTFYADAVK	GRFAGTFDS	2.65 1.04 1.28 1.01 0.73 0.96	1.28	0 of 18
GFTLNDYGIS	VIYSDGRRTFYDDSVK	GRAAGTFVS	n.d. n.d. n.d. n.d. n.d. n.d.	n.d.	0 of 18
GFTLDSYGIS	VIYSDGRRTFYGDSVK	GRAAGTFDQ	n.d. 1.62 n.d. 3.54 n.d. 1.44	2.20	1 of 18 (1.61)
GFTLNDYGIS	VIYSDGRRTFYGDSVK	GKVAGTFIS	n.d. 0.58 0.22 0.08 -0.39 n.d.	0.12	0 of 18
GFTLNSYGIS	VIYADGRRTFYGDDVK	GRAAGTFTS	n.d. n.d. n.d. 2.43 3.37 n.d.	2.90	0 of 18

From the list, the first 3 with no signal in any replicate:

CDR-H1	CDR-H2	CDR-H3	log10 Kd (nM) by replicate	log10 Kd (nM), mean	empty controls
GFTLNDYGIS	VIYSDGRRTIYIDSVK	GRAAGTFDS	n.d. n.d. n.d. n.d. n.d. n.d.	n.d.	0 of 18
GFSLNDYGIS	VIYSDGRRTFYSDSVK	GRAAGFFDS	n.d. n.d. n.d. n.d. n.d. n.d.	n.d.	1 of 18 (2.38)
GFTLNEYGIS	VIYSDGRRTFYMDSVK	GRAAVTFDQ	n.d. n.d. n.d. n.d. n.d. n.d.	n.d.	0 of 18